# Laboratory results taken from patent publication US6573296B2, “Therapeutic quassinoid preparations with antineoplastic, antiviral, and herbistatic activity” (priority 1997, dated 2003).
# System: M17/Adr
molecule,measurement,setting,value
"CC1=CC(=O)C(O)C2(C)C1CC1OC(=O)C(O)C3C(C)C(O)C4(O)OCC13C42 (stereo not shown) [Glaucarubolone, glaucarubolone]",zone of inhibition M17/Adr,25 ug/disk,>950 ZONE UNITS
CC1=CC(=O)[C@@H](O)[C@]2(C)[C@H]3[C@@]4(O)OC[C@@]35[C@@H](C[C@@H]12)OC(=O)C[C@H]5[C@@H](C)[C@H]4O [Chaparrinone],zone of inhibition M17/Adr,5 ug/disk,700 ZONE UNITS
(−)-Peninsularinone,zone of inhibition M17/Adr,0.25 ug/disk,420 ZONE UNITS
Glaucarubinone,zone of inhibition M17/Adr,,— 250 220 ZONE UNITS

# Where two headings read alike, the source gives them in different places.
